Experimental data: US20180185510A1, “ANTIBODY DRUG CONJUGATES OF KINESIN SPINDEL PROTEIN (KSP) INHIBITORS WITH ANTI-B7H3-ANTIBODIES” (BAYER PHARMA AKTIENGESELLSCHAFT, priority 2015, published 2018)

Tests used:
Format in all cases: in vivo, female NMRI-nude mice
[1] = system: A498 tumour model; assay: Activity of anti-B7H3 ADCs in A498 tumour model; conditions: A498, 10 mg/kg, Q7dx3, i.v., D14
Procedure: (§1) The cell suspension is injected underneath the skin of the mouse.
(§2) Over a number of days, a tumour grows. Treatment is started after the tumour has established itself, approximately at a tumour size of 40 mm^2.
(§3) Standard treatment is three times in succession every fourth day. In the case of slow-growing tumours, treatment once a week is recommended. For a short-term assessment, it may also be suitable to employ a protocol where treatment occurs only once. However, treatment may also be continued, or may be followed by a second cycle of three treatment days at a later point in time.
(§4) As standard, 8 animals per treatment group are employed. In addition to the groups receiving the drugs, one group, as control group, is only treated with buffer, following the same scheme.
(§5) The tumour area is determined as length x width.
(§6) The tumour cells are inoculated subcutaneously into the side of female NMRI-nude mice (Janvier). At a tumour size of ˜40 mm^2, treatment takes place intravenously using the antibody drug conjugate. After the treatment, tumour growth is optionally monitored further.

[2] = system: Caki-2 tumour model; assay: Activity of anti-B7H3 ADCs in Caki-2 tumour model; conditions: Caki-2, 10 mg/kg, Q7dx4, i.v., D24
Procedure: as §1, §2, §3, §4, §5, §6

[3] = system: MCF-7 tumour model; assay: Activity of anti-B7H3 ADCs in MCF-7 tumour model; conditions: MCF-7, 10 mg/kg, Q7dx4, i.v., D24
Procedure: as §1, §2, §3, §4, §5, §6

B1: Example 208L2 (conjugate)
heavy: QVQLQQPGAELVKPGASVKMSCKASGYTFTIYNVHWIKQTPGQGLEWMGTIFPGNGDTSYNQKFKDKATLTTDKSSKTAYMQLNSLTSEDSAVYYCARWDDGNVGFAHWGQGTLVTVSAASTKGPSVFPLAPSSKSTSGGTAALGCLVKDYFPEPVTVSWNSGALTSGVHTFPAVLQSSGLYSLSSVVTVPSSSLGTQTYICNVNHKPSNTKVDKKV[omitted - human IgG1 Fc]
light: DIQMTQSPASLSASVGETVTITCRASENINNYLTWFQQKQGKSPQLLVYHAKTLAEGVPSRFSGSGSGTQFSLKINSLQPEDFGSYYCQHHYGTPPTFGGGTKLEIKRTVAAPSVFIFPPSDEQLKSGTASVVCLLNNFYPREAKVQWKVDNALQSGNSQESVTEQDSKDSTYSLSSTLTLSKADYEKHKVYACEVTHQGLSSPVTKSFNRGEC
In the case of B1, the T/Copt area [1] is reported as 0.49 (D14), the T/Copt area [2] is reported as 0.65 (D24) and the T/Copt area [3] is reported as 0.67 (D24).
